Paper PMC11372837, “Albumin-Mediated Drug Uptake by Organic Anion Transporter 1/3 Is Real: Implications for the Prediction of Active Renal Secretion Clearance” (Molecular Pharmaceutics, 2024)

What was measured:
surface of ciPTEC = test: Facilitated-dissociation model fit: dissociation constant between albumin and the surface of ciPTEC (Kd,m); format: binding, human
Text: By assuming that the ratio of CLb,int to CLint,u(−HSA) and Bmax are ligand-independent constants, eq 5 may be further reduced to [drawing 6] 6 EFD is a ligand-independent constant representing the extent of facilitated dissociation [drawing 7] for each transporter.[22] […] Afterward, Kd,m of ciPTEC-OAT1 was assumed equal to ciPTEC-OAT3 in order to estimate the EFD for OAT1.

rat hepatocytes = target: rat hepatocytes; set-up: method as in PMID 3418494; settings: cited from earlier work
human hepatocytes = settings: cited from earlier work

Substance: albumin: human serum albumin, the major plasma protein, added to the uptake buffer at 1 and 4%
- Kd (surface of ciPTEC; estimates from eqs 4 and 6): 520 to 542 µM
- Kd (surface of ciPTEC; full facilitated-dissociation model (eq 4), active and passive uptake): 581 ± 243 µM
- Kd (surface of ciPTEC; full facilitated-dissociation model (eq 4), active uptake only): 542 ± 217 µM
- Kd (surface of ciPTEC; reduced facilitated-dissociation model (eq 6), OAT3 R values): 520 ± 434 µM
- Kd (rat hepatocytes): 157 µM
- Kd (human hepatocytes; Hepatocytes-OATP1B1/3, published estimate, ref SI 10): 46 µM
- Kd (human hepatocytes; human hepatocytes): 45.2 µM

Where two headings read alike, the source gives them in different places.
